{"source": "paper PMC10534581", "about": "“Therapeutic Drug Monitoring in Children and Adolescents: Findings on Fluoxetine from the TDM-VIGIL Trial” (Pharmaceutics, 2023)", "key": {"[1]": {"system": "α- and β-adrenoceptors, histamine, and muscarinic receptors", "settings": "cited from earlier work"}, "children and adolescents": {"system": "children and adolescents", "assay": "Treatment response on Clinical Global Impression-Improvement (CGI-I)", "format": "in vivo, human", "settings": "ordinal regressions", "protocol": "On the day of blood collection, treatment responses were measured using the Clinical Global Impression (CGI) Scale (Improvement, CGI-I), which clinicians were instructed to rate solely based on the effects of the drug. […] This instrument was specifically designed to quantify the severity of 56 signs of adverse events occurring in pediatric patients under treatment with a psychotropic drug. The 56 items were rated on a Likert scale with 'none', 'slight', 'moderate', 'severe', and 'extremely severe' responses. The maximal severity on any of the items was considered in this study. […] Additionally, indications for the TDM measurement, detailed information on concomitant medications, nicotine use, weight, and height were also recorded. […] The variance inflation factor (VIF) was evaluated as a measure of multicollinearity. […] Second, proportional odds models using the clm (cumulative link models) function in the 'ordinal' R package were fitted to examine the serum concentrations as predictors of clinical effects (measured by CGI-I) and adverse effects (measured by PAERS-maximal severity). […] To determine a possible concentration threshold of efficacy, receiver operating curve (ROC) analyses were performed based on a binary logistic regression, and the optimal cutoff was calculated by finding an optimal trade-off between sensitivity and specificity. […]"}}, "data": [{"smiles": "CNCCC(Oc1ccc(C(F)(F)F)cc1)c1ccccc1", "note": "(centres unmarked) [FLX, Fluoxetine]", "values": [{"measurement": "affinity to α- and β-adrenoceptors, histamine, and muscarinic receptors", "setting": "[1]", "value": "no or very low affinity"}, {"measurement": "relationship between serum level and therapeutic effect (CGI-I)", "setting": "children and adolescents", "value": "no significant relationship"}]}]}
